Here are results for one molecule from article PMC7321161, “The Intriguing Effects of Substituents in the N-Phenethyl Moiety of Norhydromorphone: A Bifunctional Opioid from a Set of “Tail Wags Dog” Experiments” (Molecules, 2020).

Chains of the proteins cited; added tags and fusions are not shown. Lines headed by an entry give the natural chain unless they say otherwise; changes in a name come on top.
UniProt P33533, whole entry: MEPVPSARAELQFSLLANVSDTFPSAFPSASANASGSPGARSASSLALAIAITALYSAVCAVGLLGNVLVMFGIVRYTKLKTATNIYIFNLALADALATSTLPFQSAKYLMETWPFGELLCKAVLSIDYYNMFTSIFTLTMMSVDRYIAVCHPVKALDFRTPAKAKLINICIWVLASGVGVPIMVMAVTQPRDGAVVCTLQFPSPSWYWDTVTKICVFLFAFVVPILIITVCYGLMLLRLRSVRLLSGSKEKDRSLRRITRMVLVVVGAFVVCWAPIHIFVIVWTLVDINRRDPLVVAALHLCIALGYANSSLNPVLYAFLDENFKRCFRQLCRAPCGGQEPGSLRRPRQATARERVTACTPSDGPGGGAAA

The assay has as its target T1, δ-opioid receptor (DOR) (Rattus norvegicus, UniProt P33533).
T1 construct: Frozen whole rat brains excluding cerebellum were thawed on ice; from tissue; host or cells: whole rat brain excluding cerebellum, membrane homogenate
Kind of assay: Opioid receptor binding, δ sites ([3H]DADLE), rat brain homogenate. The settings on record: radioligand displacement at 100 nM.

Take `CN1CC[C@]23c4c5ccc(O)c4O[C@H]2[C@@H](O)C=C[C@H]3[C@H]1C5` [Morphine, reference compound]: the “DOR Binding, exploratory binding assay” value is “NT (NT = not tested—inactive (<50% activity at 100 nM concentration in exploratory binding assays (displaced less than half of radioligand))”.
